Test results published in article PMC11062894, “Protein-based bandpass filters for controlling cellular signaling with chemical inputs” (Nature Chemical Biology, 2023).

By UniProt entry, the sequences of proteins in these tests, tags left out.
UniProt P10415, whole entry: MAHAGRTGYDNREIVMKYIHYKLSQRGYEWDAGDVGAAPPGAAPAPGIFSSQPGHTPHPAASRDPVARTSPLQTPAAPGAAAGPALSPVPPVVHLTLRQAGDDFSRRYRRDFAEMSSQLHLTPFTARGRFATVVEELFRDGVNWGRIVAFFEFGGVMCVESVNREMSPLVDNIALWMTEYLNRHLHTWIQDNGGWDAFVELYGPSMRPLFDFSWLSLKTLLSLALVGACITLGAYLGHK

Biological target: GEMS receptors with Bcl2:LD3 in HEK293T cells (Homo sapiens, UniProt P10415)
Assay: GEMS SEAP reporter assay, Bcl2:LD3 complex disruption
Format: cell-based
Description: HEK293T cells were seeded in a 96-well plate 24 h before transfection. The transfection mix in each well consisted of 3 ng of constitutive human CMV promoter driven mammalian STAT3 expression vector (PhCMV-STAT3-pA), 30 ng of STAT3-induced reporter expression (OStat3-PhCMVmin-SEAP-pA) and 50 ng of expression vectors for each GEMS receptor chain (PSV40-IgK-(drughigh receptor)-EpoRm-IL-6RBm-pA and PSV40-IgK-(druglow receptor-GGGGSX3-LD3)-EpoRm-IL-6RBm-pA). For the specific drughigh receptor and druglow receptor used in the different cellular assays, they are indicated as wild type or with mutations. Then, plasmid DNA was mixed with 50 μl opti-MEM (Thermo Fisher) and 600 ng of polyethyleneimine (Polysciences, catalog no. 24765-1). For drug treatment experiments, drugs were added 12 h post-transfection and incubated with cells for 24 h before the SEAP reporter detection assay.
SEAP activity (U l^−1) in cell culture supernatants was quantified by kinetic measurements at 405 nm (1 minute per measurement for 30 cycles) of absorbance increase due to phosphatase-mediated hydrolysis of para-nitrophenyl phosphate (pNPP). […]

Compound: CC1(C)CCC(c2ccc(Cl)cc2)=C(CN2CCN(c3ccc(C(=O)NS(=O)(=O)c4ccc(N[C@H](CCN5CCOCC5)CSc5ccccc5)c(S(=O)(=O)C(F)(F)F)c4)cc3)CC2)C1 [Navitoclax]
- IC50: 1770 nM
